# Reference: patent publication US20140072613A1, “Compositions and Methods for Treating Cutaneous Scarring” (priority 2012, published 2014)
# Chains of the proteins cited; added tags and fusions are not shown. Lines headed by an entry give the natural chain unless they say otherwise; changes in a name come on top.
# UniProt P06239: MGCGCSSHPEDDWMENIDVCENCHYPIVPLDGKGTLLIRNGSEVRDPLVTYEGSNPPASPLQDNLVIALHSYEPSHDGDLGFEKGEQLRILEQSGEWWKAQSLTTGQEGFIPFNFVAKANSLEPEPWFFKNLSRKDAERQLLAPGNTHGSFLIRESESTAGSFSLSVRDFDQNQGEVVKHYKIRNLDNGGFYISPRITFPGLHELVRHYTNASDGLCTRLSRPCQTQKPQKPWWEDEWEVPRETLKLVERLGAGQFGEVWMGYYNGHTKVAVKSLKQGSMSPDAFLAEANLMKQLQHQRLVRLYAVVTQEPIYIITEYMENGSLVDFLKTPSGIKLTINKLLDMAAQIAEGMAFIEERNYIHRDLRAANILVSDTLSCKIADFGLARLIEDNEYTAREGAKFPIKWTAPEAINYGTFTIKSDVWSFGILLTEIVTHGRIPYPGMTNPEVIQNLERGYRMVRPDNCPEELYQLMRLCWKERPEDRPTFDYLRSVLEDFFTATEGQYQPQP
# UniProt P49840: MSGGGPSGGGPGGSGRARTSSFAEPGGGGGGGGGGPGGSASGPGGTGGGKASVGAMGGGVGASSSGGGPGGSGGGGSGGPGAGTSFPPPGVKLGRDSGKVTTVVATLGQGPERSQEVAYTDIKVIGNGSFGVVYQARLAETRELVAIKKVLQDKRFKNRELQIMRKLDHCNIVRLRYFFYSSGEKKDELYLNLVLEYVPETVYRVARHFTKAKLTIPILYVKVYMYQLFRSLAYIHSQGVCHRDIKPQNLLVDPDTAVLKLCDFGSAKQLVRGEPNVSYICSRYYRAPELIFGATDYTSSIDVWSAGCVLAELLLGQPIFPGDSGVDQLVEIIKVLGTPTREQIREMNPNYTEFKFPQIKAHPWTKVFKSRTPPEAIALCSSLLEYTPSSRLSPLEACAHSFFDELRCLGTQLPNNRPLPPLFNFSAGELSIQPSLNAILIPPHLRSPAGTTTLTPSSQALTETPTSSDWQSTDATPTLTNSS
# UniProt Q06187, whole entry R28H: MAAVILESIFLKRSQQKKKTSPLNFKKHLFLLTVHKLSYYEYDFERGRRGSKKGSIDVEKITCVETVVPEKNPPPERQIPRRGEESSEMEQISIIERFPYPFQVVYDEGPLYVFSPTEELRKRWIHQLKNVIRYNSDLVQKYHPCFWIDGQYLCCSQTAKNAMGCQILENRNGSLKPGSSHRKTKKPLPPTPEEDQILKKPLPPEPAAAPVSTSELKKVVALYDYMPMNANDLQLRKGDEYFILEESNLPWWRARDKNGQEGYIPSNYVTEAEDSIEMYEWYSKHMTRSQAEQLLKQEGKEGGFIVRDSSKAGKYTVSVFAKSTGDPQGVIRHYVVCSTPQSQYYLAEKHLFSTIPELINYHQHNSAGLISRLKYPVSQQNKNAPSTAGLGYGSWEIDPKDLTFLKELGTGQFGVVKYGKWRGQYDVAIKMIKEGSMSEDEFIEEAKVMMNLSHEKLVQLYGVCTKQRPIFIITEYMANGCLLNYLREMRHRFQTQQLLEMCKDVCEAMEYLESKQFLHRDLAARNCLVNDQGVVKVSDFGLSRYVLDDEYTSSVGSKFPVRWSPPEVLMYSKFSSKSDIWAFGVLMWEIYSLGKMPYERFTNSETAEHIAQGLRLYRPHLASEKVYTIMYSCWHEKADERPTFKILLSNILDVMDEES
# UniProt Q15349, whole entry: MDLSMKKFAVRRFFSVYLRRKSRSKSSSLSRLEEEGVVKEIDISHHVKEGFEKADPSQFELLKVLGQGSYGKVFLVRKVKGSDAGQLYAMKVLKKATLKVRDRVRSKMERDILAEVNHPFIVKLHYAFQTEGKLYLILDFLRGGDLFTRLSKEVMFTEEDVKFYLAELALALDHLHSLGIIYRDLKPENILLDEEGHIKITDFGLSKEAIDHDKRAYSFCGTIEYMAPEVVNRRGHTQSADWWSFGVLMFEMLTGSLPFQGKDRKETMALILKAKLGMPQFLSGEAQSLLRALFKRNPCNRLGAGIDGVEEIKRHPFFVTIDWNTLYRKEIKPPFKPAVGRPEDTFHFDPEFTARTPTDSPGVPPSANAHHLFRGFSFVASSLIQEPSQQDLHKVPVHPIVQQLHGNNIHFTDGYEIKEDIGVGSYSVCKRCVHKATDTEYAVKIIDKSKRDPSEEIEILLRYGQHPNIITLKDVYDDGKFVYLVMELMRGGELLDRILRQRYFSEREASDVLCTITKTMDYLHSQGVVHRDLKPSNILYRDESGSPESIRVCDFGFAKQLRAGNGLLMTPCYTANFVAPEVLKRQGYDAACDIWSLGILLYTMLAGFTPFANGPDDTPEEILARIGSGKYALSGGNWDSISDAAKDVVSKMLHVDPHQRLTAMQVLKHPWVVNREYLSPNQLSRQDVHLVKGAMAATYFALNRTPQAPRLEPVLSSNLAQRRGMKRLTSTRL
# UniProt Q9H2X6: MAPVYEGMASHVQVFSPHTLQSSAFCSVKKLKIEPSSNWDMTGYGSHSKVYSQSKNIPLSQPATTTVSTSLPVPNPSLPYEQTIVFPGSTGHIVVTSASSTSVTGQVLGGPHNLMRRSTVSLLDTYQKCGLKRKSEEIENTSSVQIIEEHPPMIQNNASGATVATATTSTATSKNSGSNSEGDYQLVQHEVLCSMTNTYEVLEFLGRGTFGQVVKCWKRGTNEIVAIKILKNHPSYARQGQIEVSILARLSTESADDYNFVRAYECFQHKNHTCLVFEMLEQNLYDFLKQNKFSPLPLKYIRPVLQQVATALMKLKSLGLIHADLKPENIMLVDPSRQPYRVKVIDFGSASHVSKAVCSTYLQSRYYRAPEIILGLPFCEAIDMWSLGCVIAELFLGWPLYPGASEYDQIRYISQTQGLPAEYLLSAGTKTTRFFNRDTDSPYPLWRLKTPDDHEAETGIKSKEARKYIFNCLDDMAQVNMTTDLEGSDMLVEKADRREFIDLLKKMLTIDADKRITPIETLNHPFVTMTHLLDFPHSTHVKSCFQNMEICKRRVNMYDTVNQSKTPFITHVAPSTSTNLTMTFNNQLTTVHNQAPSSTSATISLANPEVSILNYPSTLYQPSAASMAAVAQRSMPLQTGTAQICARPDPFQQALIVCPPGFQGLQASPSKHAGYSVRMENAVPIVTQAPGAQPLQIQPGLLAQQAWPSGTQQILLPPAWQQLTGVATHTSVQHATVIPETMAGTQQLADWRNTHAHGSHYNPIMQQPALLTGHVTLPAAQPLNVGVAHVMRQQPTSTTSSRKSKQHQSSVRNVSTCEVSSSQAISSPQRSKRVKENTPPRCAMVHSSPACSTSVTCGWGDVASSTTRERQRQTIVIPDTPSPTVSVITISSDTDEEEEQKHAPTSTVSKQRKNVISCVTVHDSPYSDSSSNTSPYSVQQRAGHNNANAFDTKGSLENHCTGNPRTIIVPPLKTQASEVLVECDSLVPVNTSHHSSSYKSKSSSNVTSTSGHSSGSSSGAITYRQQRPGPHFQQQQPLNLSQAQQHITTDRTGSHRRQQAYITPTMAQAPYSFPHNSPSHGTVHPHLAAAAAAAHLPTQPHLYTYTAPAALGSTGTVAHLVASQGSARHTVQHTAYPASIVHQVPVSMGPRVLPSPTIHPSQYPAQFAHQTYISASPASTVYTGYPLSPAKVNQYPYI
# UniProt Q9NYY3: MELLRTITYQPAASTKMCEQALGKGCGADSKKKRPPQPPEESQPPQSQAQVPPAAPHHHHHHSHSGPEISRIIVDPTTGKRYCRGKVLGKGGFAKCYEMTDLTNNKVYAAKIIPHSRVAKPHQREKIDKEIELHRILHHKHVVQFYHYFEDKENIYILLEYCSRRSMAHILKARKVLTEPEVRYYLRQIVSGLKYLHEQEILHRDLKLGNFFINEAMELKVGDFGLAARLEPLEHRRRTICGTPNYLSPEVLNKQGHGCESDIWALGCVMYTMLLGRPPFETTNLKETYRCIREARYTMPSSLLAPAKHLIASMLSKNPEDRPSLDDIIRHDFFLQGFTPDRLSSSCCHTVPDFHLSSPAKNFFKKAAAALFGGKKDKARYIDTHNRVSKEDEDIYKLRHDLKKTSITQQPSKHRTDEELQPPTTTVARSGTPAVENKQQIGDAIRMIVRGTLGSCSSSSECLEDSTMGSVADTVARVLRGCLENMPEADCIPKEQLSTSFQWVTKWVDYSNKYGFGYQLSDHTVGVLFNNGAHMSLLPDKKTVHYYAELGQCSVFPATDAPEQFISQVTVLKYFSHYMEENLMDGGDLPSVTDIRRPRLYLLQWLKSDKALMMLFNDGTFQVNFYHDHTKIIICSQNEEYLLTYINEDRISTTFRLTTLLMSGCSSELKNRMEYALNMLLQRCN
# Assays:
# Format in all cases: biochemical
# 266 human kinases [1] = biological target: 266 human kinases (Homo sapiens, UniProt P00519); conditions: Abl(h); 100 μM
# How it was run: (§1)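 Kinase phosphorylates cationic substrate with radiolabelled ATP phosphate; substrate retained on anionic filter membrane; scintillation count; % of 100% activity control.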
# 266 human kinases [2] = biological target: 266 human kinases (Homo sapiens, UniProt P00519, Q252H); conditions: Abl(Q252H)(h); 100 μM
# How it was run: as §1
# 266 human kinases [3] = biological target: 266 human kinases (Homo sapiens, UniProt P06239); conditions: Lck(h); 100 μM
# How it was run: as §1
# 266 human kinases [4] = biological target: 266 human kinases (Homo sapiens, UniProt P07949, V804M); conditions: Ret(V804M)(h); 100 μM
# How it was run: as §1
# 266 human kinases [5] = biological target: 266 human kinases (Homo sapiens, UniProt P10721, V560G); conditions: cKit(V560G)(h); 100 μM
# How it was run: as §1
# 266 human kinases [6] = biological target: 266 human kinases (Homo sapiens, UniProt P49840); conditions: GSK3α(h); 100 μM
# How it was run: as §1
# 266 human kinases [7] = biological target: 266 human kinases (Homo sapiens, UniProt Q06187, R28H); conditions: BTK(R28H)(h); 100 μM
# How it was run: as §1
# 266 human kinases [8] = biological target: 266 human kinases (Homo sapiens, UniProt Q15349); conditions: Rsk3(h); 100 μM
# How it was run: as §1
# 266 human kinases [9] = biological target: 266 human kinases (Homo sapiens, UniProt Q9H2X6); conditions: HIPK2(h); 100 μM
# How it was run: as §1
# 266 human kinases [10] = biological target: 266 human kinases (Homo sapiens, UniProt Q9NYY3); conditions: Snk(h); 100 μM
# How it was run: as §1
# 266 human kinases [11] = conditions: JNK1α1(h); 100 μM
# How it was run: as §1
sequence,measurement,setting,value
YARAAARQARAKALNRQLGVA (mammal) [MMI-0200],% activity,266 human kinases [1],107%
same,% activity,266 human kinases [2],107%
same,% activity,266 human kinases [3],113%
same,% activity,266 human kinases [4],105%
same,% activity,266 human kinases [5],115%
same,% activity,266 human kinases [6],119%
same,% activity,266 human kinases [7],104%
same,% activity,266 human kinases [8],109%
same,% activity,266 human kinases [9],102%
same,% activity,266 human kinases [10],109%
same,% activity,266 human kinases [11],106%
